For one molecule, IC50 results are on record in EP2330125A2.

In one assay the target is calcitonin receptor. Kind of assay: CT RBA.
For assay [1], the target named is T1, CGRP receptor (Homo sapiens (Human)), Q16602.
T1 chain 1: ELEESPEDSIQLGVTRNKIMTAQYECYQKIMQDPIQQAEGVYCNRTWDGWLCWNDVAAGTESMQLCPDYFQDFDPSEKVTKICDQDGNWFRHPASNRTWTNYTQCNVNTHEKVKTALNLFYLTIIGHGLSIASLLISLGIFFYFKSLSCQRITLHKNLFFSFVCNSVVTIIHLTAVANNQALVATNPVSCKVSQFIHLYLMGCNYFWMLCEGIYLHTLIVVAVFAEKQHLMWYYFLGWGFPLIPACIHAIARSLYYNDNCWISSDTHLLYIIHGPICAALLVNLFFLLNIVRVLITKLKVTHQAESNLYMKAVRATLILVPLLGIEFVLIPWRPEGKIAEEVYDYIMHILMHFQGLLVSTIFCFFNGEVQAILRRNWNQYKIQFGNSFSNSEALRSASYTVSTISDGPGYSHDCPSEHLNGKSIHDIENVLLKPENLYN
T1 chain 2: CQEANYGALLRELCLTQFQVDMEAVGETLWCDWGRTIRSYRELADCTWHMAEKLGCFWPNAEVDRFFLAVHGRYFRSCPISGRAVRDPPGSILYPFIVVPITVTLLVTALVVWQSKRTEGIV
In words: CGRP RBA.

A further assay has as its target amylin receptor (rat). Kind of assay: amylin RBA.

In the case of SSSLPQTKCNTATCVLGRLSQELHRLQTYPRTNTGSNTY (modifications not checked) [[Ser117,dLeu119]leptin(116-122)-Amylin(1-7)-[11,18Arg]sCT(8-27)-Amylin(33-37)], the IC50 (in general, the concentration that gives 50% inhibition) in the assay with calcitonin receptor came to 0.063 nM; in assay [1], 81 nM; with amylin receptor (rat) it was 0.04 nM.
